Values of other authors as cited in patent US8293868B2 (priority 2004, dated 2012).

Legend:
insects = settings: injection
[1] = test system: voltage-gated calcium channel currents

For omega-ACTX-Hv1a, the “symptoms in injected insects (previously characterized toxin)” value (insects) is listed as “spastic paralysis followed by death” and the “selectivity of calcium channel current inhibition, insect versus mammalian” value [1] is listed as “selectively inhibit insect, as opposed to mammalian, voltage-gated calcium channel currents”.
